Measured values as given in PMC7441487 (mBio, 2020).

Columns and labels:
SARS-CoV-2 M^pro [1] = biological target: T1, SARS-CoV-2 M^pro (Severe acute respiratory syndrome coronavirus 2, UniProt P0DTD1); experiment: M^pro molecular weight analysis with HPLC/MS (covalent binding)
SARS-CoV-2 M^pro [2] = biological target: T1, SARS-CoV-2 M^pro

With `O=C(Oc1cncc(Cl)c1)c1cccc2[nH]ccc12` [GRL-0920] the “Average mass of the major M^pro species with compound” value (SARS-CoV-2 M^pro [1]) was 33,997.27 and the “Tm of M^pro” value (SARS-CoV-2 M^pro [2]) was 51.04 °C and 49.13 °C and 46.98 °C.

Several values for one entry are separate records, joined by “and”; a condition that tells them apart may be missing. Equal values may be shown once.
